An excerpt weighted towards active compounds, which were near 1.7% of everything screened.
CAL PDZ FP-1: inhibitors of human CAL PDZ peptide binding; Q9HD26; purified CAL PDZ, TMR-peptide fluorescence polarization, 1 h; inhibition, % at 24.9 µM; 300,000 tested, 0.92% active;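 active means mean inhibition of at least 30% with at least half of replicates also reaching 30%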
CAL PDZ FP-2: blocks peptide binding to human CAL PDZ domain; AID 504414; 330,000 tested, 0.02% active; inhibition, % at 20 µM; purified CAL PDZ, TMR-peptide fluorescence polarization, 1 h;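 active means highest replicate inhibition of at least 40%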
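Test system: tagged CAL PDZ domain / Buffer or medium: sodium phosphate/NaCl buffer pH 7.4 with TCEP, IgG, Thesit / Reagent: TMR-labelled reporter peptide T*-PRC34 bound in PDZ groove / Compound dosing: single point, 20 µM / Schedule: 1 h incubation at room temperature before polarization reading / Technique: fluorescence polarization (mP) / Benchmarks: unlabelled peptide, DMSO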
Yeast UUG start-1: alters start codon recognition fidelity in yeast. S. cerevisiae UUG-firefly luciferase reporter, luminescence/redox ratio. AID 602363. activity score, % at 18.7 µM. hit rate 0.13% among 350,000;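 active = replicate mean at a twofold rise or more, about +100% in these data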;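 note: firefly luciferase made from a UUG start codon reports start codon fidelity; reporter light over untreated wells divided by growth signal over untreated wells; some hits fall short of that in this replicate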
CDK5 inh: CDK5/p35 (human) kinase inhibition; Recombinant CDK5/p35, ADP-Glo luminescence, 60 min; inhibition, % at 10 µM; 330,000 tested, 0.01% active;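 active means highest replicate inhibition of at least 50% and at least 75% of replicates reaching 50%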
DYRK1A inh: blocks rat Dyrk1A kinase activity. Q63470. ADP-Glo luminescence, NFATc1 peptide. inhibition, % at 12.5 µM. 310,000 tested, 0.43% active. AID 504441; in the data active means inhibition above about 50%
dFosB activator: activators of mouse delta FosB homodimer; 340,000 tested, 0.99% active; activation, % at 25 µM; purified delta FosB, TAMRA-CDK5 oligo fluorescence polarization; percent of positive-control signal above neutral wells; P13346;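 active means mean activation above about 17%, with every replicate also reaching it, limit read from the data, passing the limit was not always enough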
ADP-Glo artifact: counter-screen for Dyrk1A inhibitors: ADP-Glo luciferase artifacts; shares compounds with DYRK1A inh; ADP-Glo luciferase artifact assay, no Dyrk1A, luminescence; AC50, µM (top dose mostly 12 µM); 1,300 tested, under 10 active;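 active means fitted half-maximal dose AC50 no more than ten times the top valid tested dose, with luminescence dropping as dose rises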
Yeast UUG start-2: alters UUG start codon use in yeast | S. cerevisiae UUG-start firefly luciferase, luminescence, 4 h; 100% means double the DMSO signal | activation, % at 38 µM | shares compounds with Yeast UUG start-1 | 540 tested, under 10 active;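 active means signal increase whose fitted curve reaches an absolute level of 40 at a concentration under 10 µM; inactive means activity opposite to the expected increase, or the rest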
Hits are given with their value; 0 = inactive; - = no result.

SMILES	CAL PDZ FP-1	CAL PDZ FP-2	Yeast UUG start-1	CDK5 inh	DYRK1A inh	dFosB activator	ADP-Glo artifact	others
C[C@]12CCC(=O)N1CCc1c2[nH]c2ccccc12	-	-	0	-	-	-	-
COc1ccccc1-c1cnc2c(c1)C(=O)N([C@@H](C)CO)C[C@@H](C)[C@H](CN(C)Cc1cncnc1)O2	-	-	0	-	-	-	-
COc1ccccc1N=c1oc2cc(O)ccc2cc1C(=O)NCC1CCCO1 (configuration not stated)	0	0	-	0	0	0	-
COc1ccccc1N=c1oc2cc(O)ccc2cc1C(N)=O	0	0	0	0	93	0	0
O=c1c(O)c(-c2ccccc2)oc2cc(O)cc(O)c12	0	0	0	0	75	0	0
O=c1c(-c2ccccc2)c(-c2ccccc2)oc2cc(O)cc(O)c12	0	0	0	0	0	0	-
O=c1cc(-c2ccccc2)c2c(O)cc(O)cc2o1	-	0	0	0	61	0	0
CC(C)=CCc1cc(-c2oc3cc(O)cc(O)c3c(=O)c2O)ccc1O	0	0	0	0	63	0	0
O=c1c(O)c(-c2cc(O)c(O)c(O)c2)oc2cc(O)cc(O)c12	0	0	0	0	90	0	0
COC(=O)c1cc(NC(=O)Nc2cccc(Cl)c2)ccc1Cl	0	0	0	0	53	0	0
O=C(Nc1ccc(Cl)c(Cl)c1)Nc1nccs1	0	0	0	0	0	0	-
O=C(Nc1cccc(Cl)c1)Nc1nccs1	0	0	0	0	59	0	0
O=C(C[C@H]1C=C[C@H](NS(=O)(=O)c2ccc(F)cc2)[C@@H](CO)O1)NCCN1CCCCC1	-	-	0	-	-	-	-
Cc1ccc(S(=O)(=O)Nc2ccc3c(c2)C(=O)N([C@@H](C)CO)C[C@@H](C)[C@H](CN(C)C(=O)Nc2ccc(F)cc2)OCCCC[C@@H](C)O3)cc1	-	-	0	-	-	-	-
CCN(CC)c1ccc(/C=C2\C(=O)c3ccc(C(=O)O)cc3C2=O)cc1	0	0	-	0	61	0	0
O=c1c(O)cccc2cc(O)c(O)c(O)c12	0	0	0	0	82	0	0
COc1ccc(CNC(=O)C[C@@H]2C=C[C@@H](NC(=O)Nc3ccc4c(c3)OCO4)[C@H](CO)O2)cc1	-	-	0	-	-	-	-
COc1ccc(C(=O)Nc2nc3ccccc3[nH]2)cc1S(=O)(=O)N1CCOCC1	-	0	0	0	55	0	0
C/C=C/c1ccc([C@H]2[C@@H](CO)N(C(C)=O)[C@H]2CN(C)C(=O)c2ccccn2)cc1	-	-	0	-	-	-	-
CCN1C(=O)/C(=C2/Sc3ccccc3N2CC)S/C1=N\c1ncn[nH]1	0	0	0	0	61	0	0
C[C@H](CO)N1C[C@H](C)[C@H](CN(C)C(=O)C2CCCCC2)Oc2cc(C#CC3CC3)ccc2S1(=O)=O	-	-	0	-	-	-	-
CCCNC(=O)C[C@H]1CC[C@@H]2[C@H](COc3ccc(NC(=O)Cc4cccs4)cc3C(=O)N2C)O1	-	-	0	-	-	-	-
O=C(Nc1ccc2ccccc2n1)c1ccccc1	0	0	0	0	51	0	0
Cc1ccc(C(=O)Nc2ccc3ccccc3n2)cc1	0	0	0	0	0	0	-
COc1ccc(CC(=O)Nc2ccc(S(=O)(=O)N3CCCC3)cc2)cc1OC	-	0	0	0	0	0	-
SMILES	CAL PDZ FP-1	CAL PDZ FP-2	Yeast UUG start-1	CDK5 inh	DYRK1A inh	dFosB activator	ADP-Glo artifact	others
COc1cc(CC(=O)OCC(=O)Nc2ccc(S(=O)(=O)N3CCCC3)cc2)cc(OC)c1OC	-	0	652	0	0	0	-	Yeast UUG start-2=0
O=C(COC(=O)/C=C/c1ccc2c(c1)OCO2)Nc1ccc(S(=O)(=O)N2CCCC2)cc1	-	0	-	0	0	0	-
O=C(COC(=O)Cc1ccc2c(c1)OCCO2)Nc1ccc(S(=O)(=O)N2CCCC2)cc1	-	0	0	0	0	0	-	Yeast UUG start-2=0
COc1cccc(C#Cc2cnc3c(c2)C(=O)N([C@@H](C)CO)C[C@@H](C)[C@H](CN(C)C(C)=O)O3)c1	-	-	0	-	-	-	-
CO[C@H]1CN(C)C(=O)c2ccc(NC(=O)C3CC3)cc2OC[C@H](C)N(C(=O)Cc2ccccn2)C[C@H]1C	-	-	0	-	-	-	-
CCS(=O)(=O)/N=C(\N)c1ccccc1	0	0	0	0	0	0	-
N/C(=N\S(=O)(=O)c1ccc(Cl)s1)c1ccccc1	0	0	117	0	0	0	-	Yeast UUG start-2=0
Cc1cc(C)c[n+](C2=C([O-])c3ccccc3C(=O)/C2=N\S(=O)(=O)c2cccs2)c1	0	0	-	0	0	0	-
Cc1cc[n+](C2=C([O-])c3ccccc3C(=O)/C2=N\S(=O)(=O)c2cccs2)cc1C	0	0	446	0	0	0	-	Yeast UUG start-2=0
C[C@@H]1CN([C@@H](C)CO)C(=O)c2cc(-c3cccnc3)cnc2O[C@H]1CN(C)C(=O)c1ccccc1F	-	-	166	-	-	-	-	Yeast UUG start-2=0

Compound activity from PubChem.
